Assay results taken from US20220389009A1, “SUBSTITUTED 1,6-NAPHTHYRIDINE INHIBITORS OF CDK5” (Goldfinch Bio, Inc., priority 2019, published 2022).

By UniProt entry, the sequences of proteins in these tests, tags left out.
UniProt Q00535, whole entry, looked up: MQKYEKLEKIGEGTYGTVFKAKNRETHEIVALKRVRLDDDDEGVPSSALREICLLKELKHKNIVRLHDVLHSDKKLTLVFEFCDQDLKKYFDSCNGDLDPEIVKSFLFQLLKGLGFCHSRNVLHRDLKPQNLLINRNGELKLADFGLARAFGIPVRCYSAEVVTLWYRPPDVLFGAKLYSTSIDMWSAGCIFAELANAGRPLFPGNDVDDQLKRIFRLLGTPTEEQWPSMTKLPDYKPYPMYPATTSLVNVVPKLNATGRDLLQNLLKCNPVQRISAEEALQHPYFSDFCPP

Tests used:
CDK2/CycA2 = CDK2/CycA2 (Homo sapiens, UniProt P24941); test: CDK2 mobility shift assay (enzymatic activity of CDK2/CycA2); format: biochemical; settings: read-out: CDK2 IC50; 1.25 nM CDK2/CycA2, 37 μM ATP, FL Peptide 18, 120 min at room temperature
Method: (§1) Compound potency was measured via a change in the enzymatic activity of CDK5/p25, and optionally of CDK2/CycA2. Enzymes, CDK5/p25 and CDK2/CycA2, were sourced from Carna Biosciences (Cat #04-106 and 04-103, respectively). Test compound stocks were diluted in 100% DMSO and serially diluted 3-fold in a 384-well plate using a TECAN EVO200 (TECAN). Staurosporine was used as a reference control compound in all assays.
(§2) Twenty nL of compound were transferred into a 384-well plate (Greiner 781201) using an Echo550 (Labcyte Inc). Enzyme, ATP, and 10 mM MgCl2 were preincubated at room temperature with the compound in assay buffer (50 mM HEPES pH 7.5, 1 mM EGTA, 0.01% Brij-35, 0.05% BSA, 2 mM DTT) for 30 minutes. Peptide substrate (FL peptide 29 (Perkin Elmer) for CDK5/p25; FL Peptide 18 (Perkin Elmer) for CDK2/CycA2) was added to initiate the reaction. […]
(§3) The CDK5/p25 reaction was incubated at room temperature for 60 min. […] Samples were analyzed using the EZ Reader (Perkin Elmer).
(§4) The results were expressed as % vehicle, where % vehicle=100×(U−C2)/(C1−C2), where U is the signal of sample, C1 is the average of the high controls (signal with no compound added), and C2 is the average of low controls (signal with the buffer in place of enzyme). The ICso is determined by fitting the percentage of inhibition as a function of compound concentrations using a 4-parameter fit defined as follows. […]

CDK5/p25 = CDK5/p25 (Homo sapiens, UniProt Q00535); test: CDK5 mobility shift assay (enzymatic activity of CDK5/p25); format: biochemical
Method: as §1, §2, §3, §4

O=C(O)C(=O)N(c1ccc2cnc(Nc3ccc(-n4cccn4)cc3F)cc2n1)C1CCNCC1
IC50 (CDK2/CycA2): > 1 µM
CDK5/CDK2 specificity (CDK5/p25; fold more active against CDK5 than CDK2): + (10-fold or less more active against CDK5 than CDK2)
IC50 (CDK5/p25; read-out: CDK5 IC50, 0.154 nM CDK5/p25, FL peptide 29, 60 min at room temperature): > 1 µM
